Measured values as given in ChEMBL document CHEMBL1157104, “Imaging progesterone receptor in breast tumors: synthesis and receptor binding affinity of fluoroalkyl-substituted analogues of tanaproget” (J Med Chem, 2010).

Biological target: T1, Progesterone receptor (Homo sapiens) (UniProt P06401)
T1 sequence (whole entry): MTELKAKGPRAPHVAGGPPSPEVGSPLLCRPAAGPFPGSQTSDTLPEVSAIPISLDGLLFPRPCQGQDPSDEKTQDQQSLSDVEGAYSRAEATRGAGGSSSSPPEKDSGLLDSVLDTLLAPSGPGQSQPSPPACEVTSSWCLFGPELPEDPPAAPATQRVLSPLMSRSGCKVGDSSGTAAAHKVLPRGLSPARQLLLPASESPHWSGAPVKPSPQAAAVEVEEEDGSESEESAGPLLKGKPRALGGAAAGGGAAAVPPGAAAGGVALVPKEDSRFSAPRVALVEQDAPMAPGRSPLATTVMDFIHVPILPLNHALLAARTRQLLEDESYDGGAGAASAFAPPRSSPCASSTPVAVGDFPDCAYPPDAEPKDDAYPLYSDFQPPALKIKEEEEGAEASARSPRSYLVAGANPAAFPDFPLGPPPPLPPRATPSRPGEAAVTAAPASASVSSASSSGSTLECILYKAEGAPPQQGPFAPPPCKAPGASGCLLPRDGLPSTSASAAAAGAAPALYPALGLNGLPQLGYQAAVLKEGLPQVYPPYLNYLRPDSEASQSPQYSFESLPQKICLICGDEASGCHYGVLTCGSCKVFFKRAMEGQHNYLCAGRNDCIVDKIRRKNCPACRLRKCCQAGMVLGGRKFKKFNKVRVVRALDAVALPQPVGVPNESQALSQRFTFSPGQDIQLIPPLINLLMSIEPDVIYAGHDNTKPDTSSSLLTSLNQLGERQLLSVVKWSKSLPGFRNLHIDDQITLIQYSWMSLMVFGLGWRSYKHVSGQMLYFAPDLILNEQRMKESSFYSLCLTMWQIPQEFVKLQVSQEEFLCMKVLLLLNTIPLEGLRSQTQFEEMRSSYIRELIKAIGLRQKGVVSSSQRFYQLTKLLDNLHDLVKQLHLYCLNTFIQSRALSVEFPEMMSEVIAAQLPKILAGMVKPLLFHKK
Assay: Binding affinity to progesterone receptor relative to R5020

| SMILES | relative binding affinity (RBA) |
| --- | --- |
| CC1(CCF)OC(=S)Nc2ccc(-c3ccc(C#N)[nH]3)cc21 (racemic) | 198 |
| C[C@@]1(CCCF)OC(=S)Nc2ccc(-c3ccc(C#N)[nH]3)cc21 | 189 |
| C[C@@]1(CCF)OC(=S)Nc2ccc(-c3ccc(C#N)[nH]3)cc21 | 198 |
| Cn1c(C#N)ccc1-c1ccc2c(c1)C(C)(C)OC(=S)N2 | 151 |
| CC1(CCCF)OC(=S)Nc2ccc(-c3ccc(C#N)[nH]3)cc21 (racemic) | 189 |
| Cn1c(C#N)ccc1-c1ccc2c(c1)[C@](C)(CCCF)OC(=S)N2 | 90.9 |
| Cn1c(C#N)ccc1-c1ccc2c(c1)C(C)(CCCF)OC(=S)N2 (racemic) | 90.9 |
| Cn1c(C#N)ccc1-c1ccc2c(c1)C(C)(CCF)OC(=S)N2 (racemic) | 151 |
| Cn1c(C#N)ccc1-c1ccc2c(c1)[C@](C)(CCF)OC(=S)N2 | 151 |
